# Values of other authors in patent US11241410B2, “Method and compound for the treatment of covid-19” (priority 2020, dated 2022).
# Target: T1, SARS-CoV-2 main protease (Severe acute respiratory syndrome coronavirus 2, UniProt P0DTD1)
# T1 construct: also MProtease (SARS-CoV-2 main protease)
# Details: auto dock; cited from earlier work
SMILES,Dissociation Constant,SMINA score,Vina score
NC(=O)c1ncn([C@@H]2O[C@H](CO)[C@@H](O)[C@H]2O)n1 [Ribavirin],1.6E−05,−6.6,−6.3
O=C1CCC(N2C(=O)c3ccccc3C2=O)C(=O)N1 (stereo not drawn) [Thalidomide],7.9E−06,−6.3,−7.0
